# Ab-14 heavy chain CDR variants: yeast mating affinities

Values reported by Li et al. 2023, doi:10.1038/s41467-023-39022-2 (FLAb copy).

All variants were tested on one target, the spike HR2 peptide PDVDLGDISGINAS (SARS-CoV-2).

The variants keep the light chain, the linker and the frameworks of Ab-14 (scFv order VH, three GGGGS repeats, VL).
VH: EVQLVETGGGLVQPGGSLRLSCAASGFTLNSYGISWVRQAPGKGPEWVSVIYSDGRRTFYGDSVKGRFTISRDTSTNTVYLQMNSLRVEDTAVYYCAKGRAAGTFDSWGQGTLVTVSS
VL: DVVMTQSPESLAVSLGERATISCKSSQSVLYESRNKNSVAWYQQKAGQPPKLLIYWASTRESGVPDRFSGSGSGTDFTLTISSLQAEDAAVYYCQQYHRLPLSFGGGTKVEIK

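Phage display of a naive human antibody library on the peptide gave the parent. The variants were designed computationally from a first round of random CDR variants and then made and measured. Group labels follow the data file (Ctrl: baseline library sampled from a position-specific scoring matrix, with some repeated check sequences; Rand: our label for a block that the file lists under HC and that is probably the random mutants of the ten best first-round binders; GP: Gaussian process model; GPLM: also part of the Gaussian process libraries; HC: hill climbing; Gen: genetic algorithm; Gibbs: Gibbs sampling; a sequence that several methods proposed may carry one label only). The assay is AlphaSeq: two haploid yeast populations carry antibody and antigen on their surface. After mating in shaken culture at 30 °C for 16 h, diploids were selected and their barcode pairs sequenced. Scores were corrected for input abundance and mapped to Kd with protein pairs of known affinity run in the same pool. The assay was run in six technical replicates.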

Each variant's VH is given in full.
Variants here have at most six changes.
Scale: log10 of Kd in nM, estimated from mating counts; low values are strong binders.
An entry "ND" has no value in the source: the pair was not observed among the diploids in that replicate. This suggests poor binding but is not conclusive.
A sequence measured in both rounds can read differently, since the two assays cover different ranges.
Three control strains display no target. For all heavy chain designs, 1% of the pairings with them gave a signal, with a median of 2.08 and one signal in twenty below 0.84, so weak values seen in few replicates may be background. For each scFv, signals with the empty controls are counted beside the result.
The authors averaged sequences with at least three values out of six and counted those with two or fewer as poor binders.
The parent sequence was in this pool as ten entries: three were never detected, three once, and four in most replicates, with averages from 0.34 to 2.37.

With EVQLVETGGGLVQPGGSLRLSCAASGFTLNSYGISWVRQAPGKGPEWVSVIYSDGMRTFYGDSVKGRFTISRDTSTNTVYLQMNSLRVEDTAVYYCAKGRAAGMFDNWGQGTLVTVSS [Ctrl] the result was ND, ND, ND, ND, ND, ND (controls 1 of 18). The variant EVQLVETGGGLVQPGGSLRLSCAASGFSLNSYGISWVRQAPGKGPEWVSVIYSDGRRTFYGDSVKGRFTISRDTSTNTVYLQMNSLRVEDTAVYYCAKGKNAGTFDTWGQGTLVTVSS [GP_Gen] showed 0.45, 0.94, 0.59, 0.62, 0.46, 0.72 (controls 0 of 18). With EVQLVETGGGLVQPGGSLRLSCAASGFDLNSYGISWVRQAPGKGPEWVSVIYSDGRRTFYIDSVKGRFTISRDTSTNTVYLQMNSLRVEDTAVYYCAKGRAAGTFNQWGQGTLVTVSS [GP_HC] the result was 2.56, 1.98, 0.88, 1.58, 1.62, 1.54 (controls 0 of 18). The variant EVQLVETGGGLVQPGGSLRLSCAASRETLNSYGISWVRQAPGKGPEWVSVIYSDGKRTFYGDSVKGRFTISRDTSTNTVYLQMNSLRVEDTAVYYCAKGRAAGTGPSWGQGTLVTVSS [Ctrl] showed ND, ND, ND, ND, ND, ND (controls 0 of 18). With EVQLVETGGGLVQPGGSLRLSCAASGFTLNEYGISWVRQAPGKGPEWVSVIYSDGRRTFYDDSVKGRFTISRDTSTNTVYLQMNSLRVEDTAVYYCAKGRAAGRFDSWGQGTLVTVSS [Ctrl] the result was ND, ND, 1.51, ND, ND, ND (controls 0 of 18). For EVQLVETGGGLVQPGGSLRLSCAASGFQLNEYGISWVRQAPGKGPEWVSVIYSDGRRTFYSDSVKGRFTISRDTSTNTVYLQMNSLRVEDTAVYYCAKGRDAGTFDSWGQGTLVTVSS [GP_HC], the assay gave 0.57, 0.22, 0.76, 1.09, 0.47, 0.67 (controls 1 of 18). With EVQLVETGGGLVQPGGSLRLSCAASGFELNQYGISWVRQAPGKGPEWVSVIYSDGRRTFYSDSVKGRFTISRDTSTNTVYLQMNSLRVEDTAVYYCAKGRAAVTFDSWGQGTLVTVSS [GP_HC] the result was ND, ND, ND, ND, ND, ND (controls 0 of 18). With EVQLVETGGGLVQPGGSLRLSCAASGFTLNSYGISWVRQAPGKGPEWVSVIYSDGRRVFYIDSVKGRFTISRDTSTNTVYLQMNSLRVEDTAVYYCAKGRAAGTFDDWGQGTLVTVSS [Ctrl] the result was ND, ND, ND, ND, ND, ND (controls 0 of 18). The variant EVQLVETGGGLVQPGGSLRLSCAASGFDLNSYGISWVRQAPGKGPEWVSVIYSDGRRTFYTDSVKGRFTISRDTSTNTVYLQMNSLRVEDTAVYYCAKGRAAVTFDSWGQGTLVTVSS [GP_HC] showed ND, ND, ND, ND, ND, ND (controls 1 of 18).

For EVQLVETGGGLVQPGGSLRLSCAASGFTLNDYGISWVRQAPGKGPEWVSVIYSDGRRTQYTDLVKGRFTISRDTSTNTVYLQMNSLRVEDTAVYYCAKGRAAGTFDEWGQGTLVTVSS [Rand], the assay gave ND, ND, ND, ND, ND, ND (controls 0 of 18). For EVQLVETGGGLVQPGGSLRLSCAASGFSLNSYGISWVRQAPGKGPEWVSVIYSDGRRTFYGDSVKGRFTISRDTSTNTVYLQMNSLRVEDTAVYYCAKGRAAGHFDSWGQGTLVTVSS [GPLM_HC], the assay gave ND, ND, ND, ND, ND, ND (controls 0 of 18). For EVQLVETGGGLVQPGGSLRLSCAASGFQLNSYGISWVRQAPGKGPEWVSVIYSDGRRTFYGDKVKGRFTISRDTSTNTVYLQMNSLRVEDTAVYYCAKGRTAGTFDSWGQGTLVTVSS [GP_Gibbs], the assay gave ND, 1.26, ND, ND, ND, 1.50 (controls 0 of 18). With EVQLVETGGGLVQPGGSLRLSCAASGFTLNSYGISWVRQAPGKGPEWVSVIYSDGRRTFYADDVKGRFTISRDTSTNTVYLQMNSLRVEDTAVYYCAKGEAAGTFDSWGQGTLVTVSS [GPLM_Gen] the result was 0.94, 0.34, 0.39, 0.29, 0.30, 0.56 (controls 2 of 18). The variant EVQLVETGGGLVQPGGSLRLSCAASGFTLNSYGISWVRQAPGKGPEWVSVIYSDGKRTFYGDNVKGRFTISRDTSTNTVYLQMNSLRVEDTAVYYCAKGRTAGTFDSWGQGTLVTVSS [GP_Gibbs] showed ND, 0.98, ND, ND, 2.02, 1.00 (controls 0 of 18). The variant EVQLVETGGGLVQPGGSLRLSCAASGTTINSYGISWVRQAPGKGPEWVSVIYSDGRRTFYSDSVKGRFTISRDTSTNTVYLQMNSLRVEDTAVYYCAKGRAAGTFDSWGQGTLVTVSS [Ctrl] gave ND, 2.38, ND, ND, ND, 0.74 (controls 0 of 18). The variant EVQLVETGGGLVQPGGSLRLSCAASGFSLNSYGISWVRQAPGKGPEWVSVIYSDGRRTFYHDSVKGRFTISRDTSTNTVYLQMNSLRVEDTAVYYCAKGKEAGTFDSWGQGTLVTVSS [GP_Gibbs] gave 0.65, 0.35, 0.83, 0.35, 1.29, 0.76 (controls 0 of 18). The variant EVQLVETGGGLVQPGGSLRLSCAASGFNLNSYGISWVRQAPGKGPEWVSVIYSDGRRTFYGDSVKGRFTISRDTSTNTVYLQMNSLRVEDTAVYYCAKGHAAGTFDSWGQGTLVTVSS [GP_Gen] gave ND, ND, ND, ND, ND, ND (controls 0 of 18). With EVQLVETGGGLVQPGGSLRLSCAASGFTLNSYGISWVRQAPGKGPEWVSVIYSDGRRTFYSDYVKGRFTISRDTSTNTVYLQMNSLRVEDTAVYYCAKGRAGGTFDSWGQGTLVTVSS [Rand] the result was ND, ND, ND, ND, ND, ND (controls 0 of 18).

With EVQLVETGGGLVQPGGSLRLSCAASGFTLNSYGISWVRQAPGKGPEWVSVIYSDGRRTFYNDSVKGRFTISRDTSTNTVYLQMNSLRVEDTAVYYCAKGEAAGTFNSWGQGTLVTVSS [Ctrl] the result was ND, ND, ND, ND, ND, ND (controls 0 of 18). For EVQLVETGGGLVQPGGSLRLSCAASKFTLNSYGISWVRQAPGKGPEWVSVIYSDGKRTFYGDSVKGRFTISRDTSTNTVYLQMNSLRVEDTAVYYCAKGRTAGTFDSWGQGTLVTVSS [GP_Gen], the assay gave ND, ND, ND, ND, 0.74, ND (controls 0 of 18). The variant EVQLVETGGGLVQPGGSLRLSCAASGFTLNEYGISWVRQAPGKGPEWVSVIYSDGRRTFYGDSVKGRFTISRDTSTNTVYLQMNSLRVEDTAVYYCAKGRHAGTFDGWGQGTLVTVSS [GPLM_HC] gave ND, ND, 0.60, 1.19, 1.77, ND (controls 0 of 18). The variant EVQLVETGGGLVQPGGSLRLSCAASGFTLNKYGISWVRQAPGKGPEWVSVIYSDGLRTFYGDSVKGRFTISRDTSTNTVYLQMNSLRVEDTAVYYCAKGRAAGTTDSWGQGTLVTVSS [Ctrl] gave ND, ND, ND, ND, ND, ND (controls 0 of 18). With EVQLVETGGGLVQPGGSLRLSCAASGFTLNSYGISWVRQAPGKGPEWVSVIYSDGYRTFYGDSVKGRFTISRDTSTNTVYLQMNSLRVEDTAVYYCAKGRAAVTFDQWGQGTLVTVSS [GPLM_HC] the result was ND, ND, ND, ND, ND, ND (controls 0 of 18). The variant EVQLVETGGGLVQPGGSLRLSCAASGFDLNSYGISWVRQAPGKGPEWVSVIYSDGRRTFYGDEVKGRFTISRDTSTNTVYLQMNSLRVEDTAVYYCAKGRAAAWFNYWGQGTLVTVSS [Rand] showed ND, ND, ND, ND, ND, ND (controls 0 of 18). With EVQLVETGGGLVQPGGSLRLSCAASGFTLNSYGISWVRQAPGKGPEWVSVIYSDGRRTFYGDSVKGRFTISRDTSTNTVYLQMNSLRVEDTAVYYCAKGEAAGTFDNWGQGTLVTVSS [GP_Gen] the result was ND, ND, 1.90, 2.40, 1.61, 2.18 (controls 0 of 18).

Extract of 2 entries:

Variant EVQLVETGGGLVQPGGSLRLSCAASGFTLNSYGISWVRQAPGKGPEWVSVIYSDGKRTFYGDNVKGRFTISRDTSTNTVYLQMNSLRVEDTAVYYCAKGRTAGTFDSWGQGTLVTVSS [GP_Gibbs] gave ND, 0.98, ND, ND, 2.02, 1.00 (controls 0 of 18).
Variant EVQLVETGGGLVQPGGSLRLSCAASGFSLNSYGISWVRQAPGKGPEWVSVIYSDGRRTFYGDSVKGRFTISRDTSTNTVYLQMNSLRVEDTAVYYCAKGRAAGHFDSWGQGTLVTVSS [GPLM_HC] gave ND, ND, ND, ND, ND, ND (controls 0 of 18).